# Ab-14 light chain CDR variants: yeast mating affinities

All variants were tested on one target, the spike HR2 peptide PDVDLGDISGINAS (SARS-CoV-2).

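Phage display of a naive human antibody library on the peptide gave the parent. The variants were designed computationally from a first round of random CDR variants and then made and measured. Group labels follow the data file (En: ensemble of fine-tuned language models; GP: Gaussian process model; HC: hill climbing; Gen: genetic algorithm; Gibbs: Gibbs sampling; a sequence that several methods proposed may carry one label only). The scFvs were displayed on barcoded MATa yeast, the peptide on MATalpha yeast. The frequency of each diploid, read from paired DNA barcodes, reflects how well the two displayed proteins bind. Read counts were normalised to the haploid input and turned into Kd by a linear fit to BCL2-family pairs of known affinity, for each replicate. There are six technical replicates.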

Each scFv is VH, a 15-residue (Gly4Ser)3 linker, VL, as in the parent Ab-14, and differs from it in the CDRs of the light chain only.
VH: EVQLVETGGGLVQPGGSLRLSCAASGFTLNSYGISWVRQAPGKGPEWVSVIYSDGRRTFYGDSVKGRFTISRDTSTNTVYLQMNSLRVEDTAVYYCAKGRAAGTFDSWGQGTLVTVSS
VL: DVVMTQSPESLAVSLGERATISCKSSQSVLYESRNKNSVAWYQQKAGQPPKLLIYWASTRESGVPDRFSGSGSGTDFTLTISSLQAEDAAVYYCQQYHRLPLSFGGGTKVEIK

The whole VL of each variant is written out. Variants here have more than six changes. Scale: log10 of Kd in nM, estimated from mating counts; low values are strong binders. Where no diploid with the target was found in that replicate, the entry reads "nd": below detection, most likely a poor binder, though not proof of it.

Variant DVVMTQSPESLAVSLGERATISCKLSSVTGTEKVKGNNVAWYQQKAGQPPKLLIYEMETRERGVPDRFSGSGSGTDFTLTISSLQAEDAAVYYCQQYNRLPLAFGGGTKVEIK [En_Gen] gave 0.21, 0.14, -0.15, -0.25, -0.17, 0.21.
Variant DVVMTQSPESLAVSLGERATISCMLSQMWALGMKVKNSVAWYQQKAGQPPKLLIYQASMRFEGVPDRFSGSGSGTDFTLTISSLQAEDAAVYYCQQYERLPLIFGGGTKVEIK [En_Gen] gave 0.65, 0.66, nd, 1.09, 0.88, 1.55.
Variant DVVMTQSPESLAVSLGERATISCKISMAVTFETRNKNSVAWYQQKAGQPPKLLIYENSTRESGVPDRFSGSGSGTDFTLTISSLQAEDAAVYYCQSYHRLPLSFGGGTKVEIK [En_HC] gave nd, nd, nd, nd, nd, nd.
Variant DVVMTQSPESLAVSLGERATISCKWSCSSLYDDANKNSVAWYQQKAGQPPKLLIYNASTRLMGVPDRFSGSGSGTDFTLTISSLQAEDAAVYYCQQYHRLPLSFGGGTKVEIK [GP_Gibbs] gave 0.32, 0.01, -0.18, 0.18, -0.06, 0.21.
Variant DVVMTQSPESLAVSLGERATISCSMGWAHENGDNWMNSIAWYQQKAGQPPKLLIYDATHLAYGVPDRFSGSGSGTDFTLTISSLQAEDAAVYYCQQYSRLPITFGGGTKVEIK [En_Gibbs] gave 0.47, 0.35, 0.63, 0.31, 0.44, 0.90.
Variant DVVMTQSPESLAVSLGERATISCMIYGAHMELGRAANSIAWYQQKAGQPPKLLIYDNVTRYDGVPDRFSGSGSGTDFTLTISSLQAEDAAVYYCQQYERLPLSFGGGTKVEIK [En_Gen] gave 2.78, 2.68, 1.87, 1.63, 1.95, 1.33.
Variant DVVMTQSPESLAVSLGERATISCKVQMKNLYESRMKNSVAWYQQKAGQPPKLLIYNASLRESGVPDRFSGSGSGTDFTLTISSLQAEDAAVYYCQQYHRLPLSFGGGTKVEIK [GP_Gibbs] gave 0.88, 2.36, 0.69, 1.36, 0.78, 1.03.
Variant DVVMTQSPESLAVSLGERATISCHVSEMTFAQMKARNSVAWYQQKAGQPPKLLIYENNTREDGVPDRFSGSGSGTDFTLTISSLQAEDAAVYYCQQYDRLPLSFGGGTKVEIK [En_HC] gave nd, nd, nd, nd, nd, nd.
Variant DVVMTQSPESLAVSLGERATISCKVWFSELGLERNKMSVAWYQQKAGQPPKLLIYQASTRESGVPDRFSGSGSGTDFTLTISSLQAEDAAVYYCQQYHRLPLSFGGGTKVEIK [GP_Gibbs] gave 0.01, 0.24, 0.19, 0.40, 0.05, 0.49.
Variant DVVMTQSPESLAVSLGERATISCIVTQLMLWGWHAKNSIAWYQQKAGQPPKLLIYEAQTRLNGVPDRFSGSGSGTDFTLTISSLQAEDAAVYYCQQYERLPLFFGGGTKVEIK [En_Gen] gave nd, nd, nd, nd, nd, nd.
Variant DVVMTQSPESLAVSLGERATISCKWSWSWLLESRVWNSVAWYQQKAGQPPKLLIYNASLRLSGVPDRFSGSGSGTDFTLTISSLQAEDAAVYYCQQYHRLPLSFGGGTKVEIK [GP_Gibbs] gave 1.31, 1.25, 1.29, 1.19, 1.38, 0.77.
Variant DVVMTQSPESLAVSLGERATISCMISQLMNMGSFAINSVAWYQQKAGQPPKLLIYQASLRNEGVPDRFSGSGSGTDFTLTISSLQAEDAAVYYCQQYDRLPLTFGGGTKVEIK [En_Gen] gave 0.89, 1.19, 1.53, 1.07, 0.90, 1.75.
Variant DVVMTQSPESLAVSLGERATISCRIDAYPPMLGKNIDSIAWYQQKAGQPPKLLIYENAITLHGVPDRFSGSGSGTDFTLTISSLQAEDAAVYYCQQYANLPLSFGGGTKVEIK [En_Gibbs] gave nd, nd, nd, nd, 3.06, 2.60.
Variant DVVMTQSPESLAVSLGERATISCQLSMLTGHVSMSKNNVAWYQQKAGQPPKLLIYEMETRMNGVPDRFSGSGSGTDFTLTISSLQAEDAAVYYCQQYDRLPLSFGGGTKVEIK [En_Gen] gave 0.33, 0.58, 0.40, 0.28, 0.31, 0.51.
Variant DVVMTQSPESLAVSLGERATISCMLGMTVMQGMYSRNNVAWYQQKAGQPPKLLIYQEETRAEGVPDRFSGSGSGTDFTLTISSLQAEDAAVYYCQQYHHLPLSFGGGTKVEIK [En_HC] gave 0.23, 0.57, 0.31, 0.19, 0.41, 0.19.
Variant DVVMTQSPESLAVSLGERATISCKLYTSTMLESHNKNSIAWYQQKAGQPPKLLIYDLSTRGNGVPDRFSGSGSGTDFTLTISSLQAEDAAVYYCQQYHRLPLSFGGGTKVEIK [En_HC] gave 1.34, 0.58, 0.74, 0.56, 0.56, 0.53.
Variant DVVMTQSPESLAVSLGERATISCMIYGAQRELGLAANSIAWYQQKAGQPPKLLIYDNVTRYSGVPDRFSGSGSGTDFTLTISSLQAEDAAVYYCQQYERLPLSFGGGTKVEIK [En_Gen] gave nd, nd, nd, nd, nd, nd.
Variant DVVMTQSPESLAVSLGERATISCTLGAATLEESRNKNSVAWYQQKAGQPPKLLIYEMSLRESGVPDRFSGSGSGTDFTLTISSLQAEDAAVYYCQSYNRLPLSFGGGTKVEIK [En_HC] gave 1.45, 1.25, 1.41, 1.18, 1.25, 1.42.
Variant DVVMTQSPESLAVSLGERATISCTIGQSVHETSKNKNSVAWYQQKAGQPPKLLIYHASTREDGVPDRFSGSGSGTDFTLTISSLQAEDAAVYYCQQYDRLPLSFGGGTKVEIK [En_HC] gave 0.54, 0.44, 0.35, 0.36, 0.43, 0.43.
Variant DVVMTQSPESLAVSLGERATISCKLQQLMLYESRMKNSVAWYQQKAGQPPKLLIYNASTRGSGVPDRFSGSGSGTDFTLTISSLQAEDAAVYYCQQYHRLPLSFGGGTKVEIK [GP_Gibbs] gave 0.40, 0.23, 0.02, 0.38, 0.17, 0.14.
Variant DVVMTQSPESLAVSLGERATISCKLSATYRFETQNKNNIAWYQQKAGQPPKLLIYEMTTRESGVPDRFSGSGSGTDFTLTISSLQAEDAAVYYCQCYHRLPLSFGGGTKVEIK [En_HC] gave 1.53, 2.53, 1.38, 1.36, 1.92, 1.68.

A selection of 2 entries from above:

VL	group	replicates, log10 nM
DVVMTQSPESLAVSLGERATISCMISQLMNMGSFAINSVAWYQQKAGQPPKLLIYQASLRNEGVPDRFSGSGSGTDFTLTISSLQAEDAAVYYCQQYDRLPLTFGGGTKVEIK	En_Gen	0.89, 1.19, 1.53, 1.07, 0.90, 1.75
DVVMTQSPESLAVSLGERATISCKLSATYRFETQNKNNIAWYQQKAGQPPKLLIYEMTTRESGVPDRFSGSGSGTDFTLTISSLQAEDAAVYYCQCYHRLPLSFGGGTKVEIK	En_HC	1.53, 2.53, 1.38, 1.36, 1.92, 1.68

Of ten entries with the parent sequence, four were seen in most replicates (averages 0.34 to 2.37), three in one and three in none, so single entries are noisy. A sequence measured in both rounds can read differently, since the two assays cover different ranges. In the paper, a design with two or fewer of six values counts as a poor binder. Empty control strains, which show no peptide, gave a signal in 4% of pairings with all light chain designs; the median was 2.64 and 95% of these signals were weaker than 1.59. No background was subtracted.

Values reported by Li et al. 2023, doi:10.1038/s41467-023-39022-2 (FLAb copy).